Measurements taken from patent US11823799B2, “Method for identifying personalized therapeutic strategies for patients affected with a cancer” (UNIVERSITE DE STRASBOURG, priority 2015, dated 2023).

Key:
CC model (CR-IC-028M) [1] = assay: Earlier Cetuximab test in patient-derived colorectal tumor xenografts; type: in vivo, CB17 SCID mice; details: Cetuximab 12.5 mg/kg i.p 1 time per week, 3 weeks
Protocol: The predictive value of the calculated score was tested in a colorectal cancer tumor animal model. Small tumor fragments (CR-IC-004M-P4/CR-IC-006M-P3/CR-IC-007M-P4/CR-IC-009M-P3/CR-IC-0013M-P3/CR-IC-0021M-P4/CR-IC-0025M-P3/CR-IC-0028M-P3/CR-IGR-002M-P4/CR-IGR-0023M-P3/CR-IGR-048M-P3/CR-IGR-052C-P4/CR-LRB-008M-P4/CR-LRB-009C-P4/CR-LRB-019C-P5) were subcutaneously implanted in the right flank of CB17 SCID mice. The treatment started when tumors reached a mean volume of 200-300 mm^3. Animals were randomized according to their individual tumor volume into 2 groups using Vivo Manager® software (Biosystemes, Couternon, France). A statistical test (analysis of variance) was performed to test for homogeneity between groups. The first group was treated with Cetuximab 12.5 mg/kg (n=10) i.p 1 times per week during 3 weeks, the second with the vehicle of Cetuximab 0.9% NaCl. The tumor volume was calculated by [(a×b^2) 2], where a is the largest tumor diameter and b the perpendicular tumor diameter measured with a caliper.

CC model (CR-IC-028M) [2] = assay: Colorectal tumor PDX model CR-IC-028M, subcutaneous tumor growth in mice; type: in vivo, SWISS Nude mice; details: Cetuximab 12.5 mg/kg i.p, Trastuzumab 1 mg/kg i.p, Cediranib 6 mg/kg p.o; vs vehicle
From the text: Small tumor fragments were subcutaneously implanted in the right flank of 9 CB17 SCID mice. When tumor size reached 500-700 mm^3, tumors were surgically excised and small tumor fragments were subcutaneously implanted in the right flank of 52 recipient SWISS Nude mice.
The treatment started when tumors reached a mean volume of 200-300 mm^3. 40 animals out were randomized according to their individual tumor volume into 4 groups each of 10 animals using Vivo Manager® software (Biosystemes, Couternon, France). A statistical test (analysis of variance) was performed to test for homogeneity between groups.
The first group of the model CR-IC-028M was treated with Cetuximab 12.5 mg/kg (n=10) i.p 1 times per week during 3 weeks, the second with Trastuzumab 1 mg/kg (n=10) i.p twice weekly during 3 weeks, a third group was treated with Cediranib 6 mg/kg (n=10) p.o during 10 days interrupted by 2 days of wash-out after 5 days. The last one, the control group received a mix of the vehicle of Cetuximab and Cediranib. The administration volume for the two models was 10 mL/kg (200 μL/mouse of 20 g) adjusted to the most recent individual body weight of mice.
The tumor volume was calculated by [(a×b^2) 2], where a is the largest tumor diameter and b the perpendicular tumor diameter measured with a caliper every 3 days. […]

Row | Substance | response of the model in previous results (CC model (CR-IC-028M) [1]) | effect on tumor growth / tumor development (CC model (CR-IC-028M) [2])
1 | Cetuximab | resistant | tumor growth was not affected
2 | Trastuzumab |  | not efficient in blocking tumor development
